Entries after “also recorded” stand apart in the source; their conditions may differ.
Key:
[1] = biological target: cannabinoid CB 1 receptors (Homo sapiens, UniProt P21554); conditions: cited from earlier work
[2] = Blood levels of NAGly in rats after oral administration; type: in vivo; conditions: 10 mg/kg oral
human T-lymphocytes = experiment: PHA stimulated T-cell proliferation (BrDU incorporation); type: cell-based; conditions: 0.1-10 mM, PHA 10 ng/ml, 72 hours
Protocol: Isolated human T-lymphocytes (5×10^5 ) were cultured in 96 well microtiter plates and treated with NAGly or DMSO for 60 minutes. The cells were then stimulated with PHA (10 ng/ml) and incubated for 72 hours. A control set treated with NAGly/DMSO not stimulated with PHA was incubated in parallel. Cell numbers were determined by measuring BrDU incorporation for 24 hours. The values shown (see “PRO[…]” on the y-axis) are the ratios of the optical density readings from treated and control cells.
Cell proliferation in vitro was measured by incorporation of 5-bromo-2′-deoxyuridine (BrDU) instead of thymidine into the DNA of proliferating cells. In these experiments, isolated T-lymphocytes were treated with NAGly or vehicle (DMSO) for 60 minutes in RPMI containing 2% autologous serum. Cells (2×10^5 per well) were then cultured in 96 well, flat bottomed microtiter plates and stimulated with PHA (10 ng/ml) or not stimulated. Cultures were maintained for 72 hours in a standard cell incubator at 37° C. […] Anti-BrDU-peroxidase was added and the immune complex was detected by substrate (tetramethylbenzidine) reaction. The reaction was stopped with […] sulfuric acid (1N) and the product was quantified by measuring the absorbance at 492 nm with reference at 650 nm. Absorbance correlated directly to the amount of DNA synthesis, and, thereby, to the number of proliferating cells in each culture.

Chains of the proteins cited; added tags and fusions are not shown.
UniProt P21554, whole entry: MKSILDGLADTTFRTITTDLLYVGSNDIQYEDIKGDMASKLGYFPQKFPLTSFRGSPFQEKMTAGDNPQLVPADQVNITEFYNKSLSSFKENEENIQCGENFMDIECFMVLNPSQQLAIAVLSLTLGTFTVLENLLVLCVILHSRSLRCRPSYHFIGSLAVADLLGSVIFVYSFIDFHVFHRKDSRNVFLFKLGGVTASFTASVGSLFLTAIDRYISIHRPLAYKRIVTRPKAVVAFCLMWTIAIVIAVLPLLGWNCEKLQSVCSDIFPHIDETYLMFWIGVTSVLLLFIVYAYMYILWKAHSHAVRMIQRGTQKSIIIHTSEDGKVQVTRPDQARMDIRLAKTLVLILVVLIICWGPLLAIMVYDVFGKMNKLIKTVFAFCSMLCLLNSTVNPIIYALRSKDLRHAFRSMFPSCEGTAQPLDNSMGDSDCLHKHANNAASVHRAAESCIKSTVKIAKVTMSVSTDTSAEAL
UniProt O00519, whole entry: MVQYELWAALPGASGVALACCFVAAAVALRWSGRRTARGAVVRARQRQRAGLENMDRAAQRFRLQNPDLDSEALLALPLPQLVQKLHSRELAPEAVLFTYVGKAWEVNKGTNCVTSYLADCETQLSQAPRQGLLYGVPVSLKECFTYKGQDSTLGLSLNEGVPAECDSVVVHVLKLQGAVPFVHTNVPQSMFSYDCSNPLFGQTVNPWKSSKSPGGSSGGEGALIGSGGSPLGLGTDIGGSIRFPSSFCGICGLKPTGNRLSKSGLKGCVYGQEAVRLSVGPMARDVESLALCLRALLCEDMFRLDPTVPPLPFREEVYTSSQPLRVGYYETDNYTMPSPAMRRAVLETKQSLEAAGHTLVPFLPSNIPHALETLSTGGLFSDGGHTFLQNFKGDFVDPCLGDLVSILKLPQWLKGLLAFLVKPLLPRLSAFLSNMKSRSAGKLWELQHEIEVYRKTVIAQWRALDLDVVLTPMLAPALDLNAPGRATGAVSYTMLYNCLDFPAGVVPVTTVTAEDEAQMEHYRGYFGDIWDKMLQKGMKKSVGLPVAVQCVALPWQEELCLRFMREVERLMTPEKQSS

[3] = test system: formalin-induced pain behavior; experiment: Formalin test for pain reduction; conditions: drug-treated rats
Protocol: Rats received intraplantar injections of formalin in the hindpaw, and pain behavior consisting of lifting and licking of the injected paw was observed. Drug or co-vehicle was coinjected with the formalin solution (4.5% formalin in 10% DMSO, 100μl, s.c., ipl.).

FAAH = FAAH (Homo sapiens, UniProt O00519); experiment: Hydrolysis by FAAH; type: in vitro ADME
Stability in vivo = conditions: compared with anandamide

Substance: N-arachidonyl glycine [NAGly]
- affinity for cannabinoid CB 1 receptors [1]: lack affinity
- blood levels of NAGly [2]: 60 to 80 nM
- proliferation of PHA stimulated T-cells (proliferation index) (human T-lymphocytes): only inhibitory; also recorded: inhibitory in a dose-related fashion
- behavioral abnormality [3]: No behavioral abnormality was observed
- hydrolysis by FAAH (FAAH): only slowly hydrolyzed by FAAH
- stability in vivo (Stability in vivo): greater stability than anandamide in vivo

— patent publication US20030022938A1, “N-fatty acid-amino acid conjugates and therapeutic uses” (priority 2001, published 2003)
